Values joined by “and” are separate entries in the source; they are usually repeats but may differ in a detail not shown here. Identical values can stand only once. The entries are a selection whose mix differs from that of the whole data set. Records with an inconclusive call do not appear. More than one record can exist for a structure, and the calls need not agree. Active and inactive are the calls of the source. Calls follow the shape of the dose curve; as a rule, active = well fitted cell-killing curve with a large enough effect in the repeat runs; inconclusive = weak or mixed curves, or effect the other way; inactive = no such curve, though single readings can be large or run the other way.
Assay: qHTS assay to identify small molecule agonists of the RXR signaling pathway - cell viability counter screen (AID 1159529); also: nearly all actives have a fitted effect of over 50% in size
Conditions: RXR-alpha-bla HEK293T viability, CellTiter-Glo, 16 h; series mostly up to 76.8 µM; activity change, negative = cytotoxicity: at the top concentration
From the text: National Center for Advancing Translational Sciences [NCATS]
NIH Chemical Genomics Center [NCGC]
U.S. Environmental Protection Agency [EPA]
National Institutes of Environmental Health Sciences [NIEHS]
National Toxicology Program [NTP]
U.S. Food and Drug Administration [FDA]
The Retinoid X receptor (RXR), a nuclear hormone receptor expressed in liver, spleen, placenta, epidermis, central nervous system. These receptors are able to form homo and heterodimers with other nuclear receptors and due to this heterodimerizing ability, RXR functions as master regulators producing diverse physiological effects. Three subtypes of RXR exist; alpha, beta and gamma. Retinoid X receptor alpha (RXR-alpha) has potential roles in metabolic signaling pathways, skin alopecia, dermal cysts, cardiac development, insulin sensitization etc. Therefore screening environmental chemicals on RXR-alpha signaling can be used for the studies focused on such therapeutic applications. For quantification of RXR-alpha ligands signaling, GeneBLAzer RXR alpha-UAS-bla HEK 293T (Life Technologies, Carlsbad, CA) cells containing a beta-lactamase reporter-gene under control of Retinoid X receptor-alpha response element were used to screen Tox21 10K library. The cytotoxicity of the Tox21 compound library against the RXR-alpha HEK 293T cell line was tested in parallel by measuring cell viability using CellTiter-Glo assay (Promega Corporation, Madison, WI) in the same wells.
Tox21 Assay Protocol Summary:
RXR-alpha HEK 293T cells were dispensed at 2,000 cells/6 uL of assay medium containing 2% charcoal-stripped FBS using a Multidrop Combi (ThermoFisher Scientific, Waltham, MA) dispenser. The assay was performed in black wall/clear-bottom 1536-well plates (Greiner Bio-One North America Inc. Monroe, NC). Tetraoctyl ammonium bromide was used as a positive control in the cytotoxicity screen. After the assay plates were incubated at 37 C and 5% CO2 for 5 hr, 23 nL of compounds dissolved in DMSO, positive control or DMSO only were transferred to the assay plate by a Pintool station (Kalypsys, San Diego, CA). The assay plates were incubated at 37 C and 5% CO2 for 16 hr. One uL of LiveBLAzer B/G FRET substrate (Life Technologies) was added using a Flying Reagent Dispenser (FRD) (Aurora Discovery, San Diego, CA) and the plates were incubated at room temperature for 2 hr. Fluorescence intensity (405 nm excitation, 460/530 nm emission) was measured using an Envision plate reader (PerkinElmer, Shelton, CT). For cytotoxicity, 4 uL/well of CellTiter-Glo reagent was added into the assay plates using an FRD. After 30 min incubation at room temperature, the luminescence intensity was measured using a ViewLux plate reader (PerkinElmer).
% is scaled to controls: 0 for no effect and ±100 for the full control effect; potency is read from the fitted curve at half-maximal effect.

Question: With Cc1cc([N+](=O)[O-])cc([N+](=O)[O-])c1O as the compound, how does the Potency read?
Answer: Its Potency is “inactive and active: 3.46 µM”.

Question: Which “activity change, negative = cytotoxicity” value does the source give for CN(N=O)C(=N)N[N+](=O)[O-] here?
Answer: The value was inactive: -9.23%.

Question: For O=P(Cl)(Cl)c1ccccc1, which “activity change, negative = cytotoxicity” value is on record?
Answer: Its value is inactive: 9.3%.

Question: For ClP(Cl)c1ccccc1, which “activity change, negative = cytotoxicity” value is on record?
Answer: Its value is inactive: 18.8%.

Question: Which Potency does the source give for O=[As]c1ccccc1 (stereo not drawn) here?
Answer: Its Potency is active: 871 nM.

Question: With CN(C(=O)Cc1cccc2occc12)[C@H]1CC[C@@]2(CCCO2)C[C@@H]1N1CCCC1 as the compound, how does the “activity change, negative = cytotoxicity” value read?
Answer: The value was inactive: -7.02%.

Question: For CCOP(=S)(CC)Sc1ccccc1 (stereo not drawn), which “activity change, negative = cytotoxicity” value is on record?
Answer: Its value is inactive: 0.359%.

Question: For CCC(C)(OOC(C)(C)C)OOC(C)(C)C, which activity change, negative = cytotoxicity is on record?
Answer: The activity change, negative = cytotoxicity was inactive: -1.76% [at 15.8 µM].

Question: For CCOC(=O)Cl, which “activity change, negative = cytotoxicity” value is on record?
Answer: Its value is inactive: 1.61%.

Question: Which “activity change, negative = cytotoxicity” value does the source give for O=P(Cl)(Oc1ccccc1)Oc1ccccc1 here?
Answer: The value was inactive: 5.5%.

Question: Which Potency does the source give for CCCCO[P+](=O)OCCCC here?
Answer: Its Potency is “inactive”.

Question: For COP(=S)(Cl)OC, which “activity change, negative = cytotoxicity” value is on record?
Answer: The value was inactive: 2.8%.

Question: With O=C(Cl)Oc1ccccc1 as the compound, how does the “activity change, negative = cytotoxicity” value read?
Answer: Its value is inactive: 11.6%.

Question: For O=C1C2CC=CCC2C(=O)N1SC(Cl)(Cl)C(Cl)Cl (stereo not drawn), which Potency is on record?
Answer: The Potency was active: 4900 nM.

Question: With O=[P+](Oc1ccccc1)Oc1ccccc1 as the compound, how does the “activity change, negative = cytotoxicity” value read?
Answer: The value was inactive: -2.2%.

Question: For NC(=O)Nc1ccc([As](=O)(O)O)cc1, which “activity change, negative = cytotoxicity” value is on record?
Answer: The value was inactive: 4.72%.

Question: Which “activity change, negative = cytotoxicity” value does the source give for Cc1cc([N+](=O)[O-])c(O)c([N+](=O)[O-])c1 here?
Answer: The value was inactive: -0.0682%.

Question: For CC(C)CCCCCCCOP(OCCCCCCCC(C)C)Oc1ccccc1, which “activity change, negative = cytotoxicity” value is on record?
Answer: Its value is inactive: -2.14%.

Question: Which “activity change, negative = cytotoxicity” value does the source give for COC(=O)Cl here?
Answer: Its value is inactive: 10%.

Question: For O=C(Cl)OCCOC(=O)Cl, which “activity change, negative = cytotoxicity” value is on record?
Answer: Its value is inactive: -7.8%.

Question: For CN(C(=O)Cc1ccccc1)[C@H]1CC[C@@]2(CCCO2)C[C@@H]1N1CCCC1, which “activity change, negative = cytotoxicity” value is on record?
Answer: Its value is inactive: 2.03% [at 35.3 µM].

Question: With O=[N+]([O-])c1ccc(S(=O)(=O)O)c([N+](=O)[O-])c1 as the compound, how does the “activity change, negative = cytotoxicity” value read?
Answer: Its value is inactive: -17.7%.

Question: Which “activity change, negative = cytotoxicity” value does the source give for CCCCOP(OCCCC)OCCCC here?
Answer: Its value is inactive: 4.06%.

Question: For CCCCC(CC)CO[P+](=O)OCC(CC)CCCC (stereo not drawn), which “activity change, negative = cytotoxicity” value is on record?
Answer: The value was inactive: 11.8%.

Question: Which “activity change, negative = cytotoxicity” value does the source give for O=[p+]1oc2ccccc2c2ccccc21 (stereo not drawn) here?
Answer: Its value is inactive: -9.89%.

Question: With CCNC(C)Cc1ccc2c(c1)OCO2 (stereo not drawn) as the compound, how does the “activity change, negative = cytotoxicity” value read?
Answer: The value was inactive: -0.221%.

Question: Which “activity change, negative = cytotoxicity” value does the source give for O=[N+]([O-])c1ccc([N+](=O)[O-])cc1 here?
Answer: The value was inactive: -6.67%.

Question: Which “activity change, negative = cytotoxicity” value does the source give for CN(C(=O)Cc1ccc(Cl)c(Cl)c1)[C@H]1CC[C@@]2(CCCO2)C[C@@H]1N1CCCC1 here?
Answer: Its value is inactive: -18.4% [at 35.3 µM].

From PubChem BioAssay (Tox21)
